The values that follow come from patent US8959984B2, “Proteome-wide quantification of small molecule binding to cellular target proteins” (priority 2007, dated 2015).

Sequences of proteins named here, by UniProt entry; tags and fusion partners are left off. A change or cut given only in a name is not applied to a line headed by its entry.
UniProt P49760, whole entry: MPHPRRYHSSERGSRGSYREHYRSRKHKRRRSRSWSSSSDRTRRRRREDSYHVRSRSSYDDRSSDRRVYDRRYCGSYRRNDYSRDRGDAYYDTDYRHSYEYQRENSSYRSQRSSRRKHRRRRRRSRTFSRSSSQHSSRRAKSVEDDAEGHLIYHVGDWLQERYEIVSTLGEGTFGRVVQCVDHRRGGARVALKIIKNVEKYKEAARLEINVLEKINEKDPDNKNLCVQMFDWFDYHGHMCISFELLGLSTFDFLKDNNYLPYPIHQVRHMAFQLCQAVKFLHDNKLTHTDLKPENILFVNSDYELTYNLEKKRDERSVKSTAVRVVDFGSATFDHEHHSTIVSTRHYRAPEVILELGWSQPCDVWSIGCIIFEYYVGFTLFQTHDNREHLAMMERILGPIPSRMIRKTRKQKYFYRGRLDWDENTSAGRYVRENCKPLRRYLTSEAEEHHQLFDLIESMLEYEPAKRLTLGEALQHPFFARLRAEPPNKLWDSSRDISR
UniProt P27448: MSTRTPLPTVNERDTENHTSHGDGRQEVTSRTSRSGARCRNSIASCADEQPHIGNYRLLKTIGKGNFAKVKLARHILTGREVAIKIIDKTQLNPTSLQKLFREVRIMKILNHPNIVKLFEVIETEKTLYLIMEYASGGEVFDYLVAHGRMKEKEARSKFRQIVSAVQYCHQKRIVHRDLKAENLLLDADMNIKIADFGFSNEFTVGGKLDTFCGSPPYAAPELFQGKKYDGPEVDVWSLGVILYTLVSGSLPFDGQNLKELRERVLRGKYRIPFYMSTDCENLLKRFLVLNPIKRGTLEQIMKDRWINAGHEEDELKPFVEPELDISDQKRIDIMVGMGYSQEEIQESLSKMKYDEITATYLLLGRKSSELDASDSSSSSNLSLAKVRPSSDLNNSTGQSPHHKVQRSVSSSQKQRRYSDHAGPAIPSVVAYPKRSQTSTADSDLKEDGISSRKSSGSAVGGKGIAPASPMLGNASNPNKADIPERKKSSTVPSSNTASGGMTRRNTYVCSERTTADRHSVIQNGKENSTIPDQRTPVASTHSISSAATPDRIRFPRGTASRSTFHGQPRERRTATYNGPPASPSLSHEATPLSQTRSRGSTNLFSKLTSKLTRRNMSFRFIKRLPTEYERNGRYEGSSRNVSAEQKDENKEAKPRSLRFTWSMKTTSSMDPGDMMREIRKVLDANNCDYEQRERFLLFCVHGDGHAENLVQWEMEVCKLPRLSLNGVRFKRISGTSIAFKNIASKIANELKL
UniProt Q96AB3: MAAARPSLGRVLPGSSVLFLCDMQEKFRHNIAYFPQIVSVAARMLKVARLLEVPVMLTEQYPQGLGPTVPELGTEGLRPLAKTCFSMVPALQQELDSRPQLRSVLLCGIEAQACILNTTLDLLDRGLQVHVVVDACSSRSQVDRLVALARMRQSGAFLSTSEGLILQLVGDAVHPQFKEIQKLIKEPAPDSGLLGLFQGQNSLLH

Common to all, as to experiment: Ki determination for immobilized VI16742: two consecutive incubations, control beads, ligand concentration and incubation time controls (Tables 7, 8)
Type in all cases: binding

The target of test [1] is T1, cellular target proteins in HeLa cell lysate (Homo sapiens, UniProt O75385).
T1 sequence (O75385 1-1050): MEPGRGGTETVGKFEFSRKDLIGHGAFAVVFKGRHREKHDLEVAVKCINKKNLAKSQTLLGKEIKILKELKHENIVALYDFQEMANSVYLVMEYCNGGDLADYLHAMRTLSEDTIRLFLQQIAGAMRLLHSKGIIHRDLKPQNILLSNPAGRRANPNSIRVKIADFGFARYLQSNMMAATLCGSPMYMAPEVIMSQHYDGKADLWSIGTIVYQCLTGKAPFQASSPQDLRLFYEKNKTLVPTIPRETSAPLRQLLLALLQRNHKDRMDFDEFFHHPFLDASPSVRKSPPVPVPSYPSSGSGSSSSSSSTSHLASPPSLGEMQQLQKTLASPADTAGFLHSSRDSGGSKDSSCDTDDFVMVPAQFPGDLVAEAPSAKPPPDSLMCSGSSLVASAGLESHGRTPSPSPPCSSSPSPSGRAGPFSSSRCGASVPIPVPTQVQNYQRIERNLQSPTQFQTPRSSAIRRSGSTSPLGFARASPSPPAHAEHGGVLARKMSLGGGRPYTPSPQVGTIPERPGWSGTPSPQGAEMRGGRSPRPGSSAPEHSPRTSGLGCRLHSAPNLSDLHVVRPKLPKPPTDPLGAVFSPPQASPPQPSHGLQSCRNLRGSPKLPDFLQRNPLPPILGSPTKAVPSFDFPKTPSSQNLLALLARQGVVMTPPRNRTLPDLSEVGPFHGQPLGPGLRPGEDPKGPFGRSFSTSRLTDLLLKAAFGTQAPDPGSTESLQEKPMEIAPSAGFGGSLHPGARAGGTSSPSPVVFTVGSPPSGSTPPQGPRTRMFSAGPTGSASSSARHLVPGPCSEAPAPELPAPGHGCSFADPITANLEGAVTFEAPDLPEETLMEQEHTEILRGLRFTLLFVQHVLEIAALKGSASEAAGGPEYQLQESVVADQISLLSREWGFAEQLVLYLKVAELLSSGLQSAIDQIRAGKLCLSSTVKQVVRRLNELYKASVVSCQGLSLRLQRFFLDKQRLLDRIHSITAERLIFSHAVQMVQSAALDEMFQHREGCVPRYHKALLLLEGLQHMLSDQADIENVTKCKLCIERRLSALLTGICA
To be noted: Ki (VI16742), ULK1 IPI00289357.

Test [2] deals with cellular target proteins in HeLa cell lysate (Homo sapiens, UniProt P49760). To be noted: Ki (VI16742), CLK2 IPI00028071.
Test [3] addresses cellular target proteins in HeLa cell lysate (Homo sapiens, UniProt P27448). To be noted: Ki (VI16742), MARK3 IPI00220508.
In test [4] the target is cellular target proteins in HeLa cell lysate (Homo sapiens, UniProt Q96AB3). To be noted: Ki (VI16742), ISOC2 IPI00003031.

SMILES strings stand for the structures.

As usually defined, the Ki is the dissociation constant of the complex between target and ligand, obtained from inhibition or displacement. The low end stands for tighter binding, the high end for weaker binding. On to `CC(C)n1c(=O)ccc2cnc(Nc3ccc(OCCN)cc3)nc21` [V16742], for which the inhibition constant (Ki) in test [1] came to 13 µM; in test [2], 6.31 µM; in test [3], 7.71 µM; in test [4], 75.1 µM.
